For test [1], the target named is T1, CYP2C19 (Homo sapiens, UniProt P33261). The test can be described thus: Single substrate CYP450 inhibition method (human liver microsomes). The settings on record: single substrate Omeprazole, HLM. It counts as in vitro ADME.
Test [2] has as its target T1, CYP2C19. The test can be described thus: CYP450 cocktail inhibition assay (LC-MS/MS, human liver microsomes). In general terms: Liver microsomes are vesicles of endoplasmic reticulum, rich in cytochrome P450 enzymes.
In test [3] the target is T1, CYP2C19. More on the design: method as in Spaggiari et al., 2014. Conditions: substrate Omeprazole (2C19); ref Spaggiari et al., 2014; read-out: Literature IC50, CYP2C19; cited from earlier work.

By UniProt entry, the sequences of proteins in these tests, tags left out.
UniProt P33261, whole entry: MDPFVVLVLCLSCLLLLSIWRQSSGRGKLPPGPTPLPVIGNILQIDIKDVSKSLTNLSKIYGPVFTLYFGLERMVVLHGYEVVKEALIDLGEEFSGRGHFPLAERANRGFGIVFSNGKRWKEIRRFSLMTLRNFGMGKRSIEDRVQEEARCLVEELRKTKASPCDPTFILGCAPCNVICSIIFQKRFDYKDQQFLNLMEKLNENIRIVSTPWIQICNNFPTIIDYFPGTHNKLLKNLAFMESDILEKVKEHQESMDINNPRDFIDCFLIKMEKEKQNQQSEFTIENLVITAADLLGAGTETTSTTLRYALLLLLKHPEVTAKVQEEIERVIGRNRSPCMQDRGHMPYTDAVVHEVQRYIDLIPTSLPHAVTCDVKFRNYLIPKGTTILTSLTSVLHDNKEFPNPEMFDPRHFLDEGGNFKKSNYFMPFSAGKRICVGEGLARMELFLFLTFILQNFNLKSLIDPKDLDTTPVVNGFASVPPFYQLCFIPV

A word on the IC50: it is the concentration at which inhibition is half-maximal.

Molecules are shown by their SMILES. Where two headings read alike, the source gives them in different places.

On to `OC(Cn1cncn1)(Cn1cncn1)c1ccc(F)cc1F` [Fluconazole], for which the figures for the IC50 on CYP2C19 [1], at CYP2C19 [2] and at CYP2C19 [3] were 9.43 µM, 6.54 µM and 0.634 to 5.9 µM, respectively.

Source of the values: PMC9975586, “Inhibitory effect of Selaginella doederleinii hieron on human cytochrome P450” (Frontiers in Pharmacology, 2023).
